We go through 1 compound from ChEMBL document CHEMBL1126934, “Non-peptide ligands for opioid receptors. Design of kappa-specific agonists” (J Med Chem, 1993).

The chains behind the UniProt entries cited, without tags or fusion partners. Where a name states a change or a piece, a line headed by the entry shows the natural chain unless it says otherwise.
UniProt P41144: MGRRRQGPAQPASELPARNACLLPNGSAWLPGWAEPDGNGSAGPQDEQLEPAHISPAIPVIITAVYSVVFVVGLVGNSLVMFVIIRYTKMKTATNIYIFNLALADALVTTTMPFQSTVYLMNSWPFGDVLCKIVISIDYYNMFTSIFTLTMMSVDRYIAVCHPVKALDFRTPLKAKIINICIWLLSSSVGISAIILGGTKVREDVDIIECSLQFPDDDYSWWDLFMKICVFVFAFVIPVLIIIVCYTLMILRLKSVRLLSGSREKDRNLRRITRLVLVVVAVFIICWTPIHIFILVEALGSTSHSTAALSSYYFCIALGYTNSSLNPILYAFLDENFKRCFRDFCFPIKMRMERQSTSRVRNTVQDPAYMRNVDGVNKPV
UniProt P33535, whole entry, looked up: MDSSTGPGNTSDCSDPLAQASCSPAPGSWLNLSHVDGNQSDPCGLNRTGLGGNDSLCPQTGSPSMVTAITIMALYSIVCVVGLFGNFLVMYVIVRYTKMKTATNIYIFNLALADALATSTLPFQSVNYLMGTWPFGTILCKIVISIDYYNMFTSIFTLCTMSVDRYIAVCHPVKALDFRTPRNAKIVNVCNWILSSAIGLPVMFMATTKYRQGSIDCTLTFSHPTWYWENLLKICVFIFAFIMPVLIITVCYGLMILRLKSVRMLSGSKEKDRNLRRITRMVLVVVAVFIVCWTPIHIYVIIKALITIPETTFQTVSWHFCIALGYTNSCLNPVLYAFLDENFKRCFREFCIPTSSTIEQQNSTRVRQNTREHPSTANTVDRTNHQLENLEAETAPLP

The subject of assay [1] is Mus musculus. In words: Antinociceptive activity determined in vivo in tail flick assay in male Swiss mice with saline. For orientation: In hot-plate and tail-flick tests a longer latency is read as antinociception.
Assay [2] addresses T1, Kappa-type opioid receptor (Cavia porcellus, UniProt P41144). In words: Binding affinity for kappa opioid receptor in absence of 120 mM NaCl and 50 micro M Gpp(NH)p.
Assay [3] has as its system Mus musculus. Description: Antinociceptive activity determined in vivo in tail flick assay in male Swiss mice with 2.0 mg/kg Naloxone.
Assay [4] deals with T1, Kappa-type opioid receptor. Description: Binding affinity for kappa opioid receptor in presence of 120 mM NaCl and 50 micro M Gpp(NH)p.
Assay [5] concerns Mus musculus. Description: Antinociceptive activity determined in mouse tail flick assay 30 min after sc injection (peak effect).
In assay [6] the test system is Mus musculus. Description: Antinociceptive activity determined in vivo in tail flick assay in male Swiss mice with 0.2 mg/kg Naloxone.
A further assay has as its target Mu-type opioid receptor (Rattus norvegicus, UniProt P33535). Description: Binding affinity for mu opioid receptor was evaluated by displacing [3H]- diprenorphine.
The target of assay [7] is T1, Kappa-type opioid receptor.

Molecules are shown by their SMILES.

As usually defined, the Ki is the dissociation constant of the complex between target and ligand, obtained from inhibition or displacement. What is called ED50 is the dose at which the effect has come halfway, by size or by number of responders. Higher therefore signals weaker potency.

With `CN(C(=O)Cc1ccc(Cl)c(Cl)c1)C1CCCCC1N1CCCC1` (stereo not drawn), the Ki in the assay on Mus musculus [1] came out at 1 nM; in assay [2] it was 16.5 nM; with Mus musculus [3], 0.15 nM; in assay [4], 204 nM; in the assay on Mus musculus [6], 0.78 nM; on Mu-type opioid receptor, 2130 nM. The same compound registered a Ki in assay [7] of 20.5 nM. For the same compound, the ED50 in the assay with Mus musculus [5] was 4.52 mg/kg.
